# According to PubChem BioAssay (Tox21):
# The source calls these results inconclusive, neither active nor inactive. Calls follow the shape of the full dose curve.
# Assay: p53 small molecule agonists, cell-based qHTS assay with human liver microsomes (AID 1963577);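 as to activation: p53 response element beta-lactamase reporter cells with liver microsomes plus NADPH; % is scaled to controls: 0 for no effect and ±100 for the full control effect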
# Conditions: HCT-116 p53RE-bla with human liver microsomes, ratio, 16 h; activation: at 66 µM (top of the series)
# Excerpt: (§1) National Center for Advancing Translational Sciences [NCATS]
# (§2) Division of Preclinical Innovation [DPI]
# (§3) U.S. Environmental Protection Agency [EPA]
# (§4) National Institutes of Environmental Health Sciences [NIEHS]
# (§5) National Toxicology Program [NTP]
# (§6) U.S. Food and Drug Administration [FDA]
# p53, a tumor suppressor protein, is activated following cellular insult, including DNA damage and other cellular stresses. The activation of p53 regulates cell fate by inducing DNA repair, cell cycle arrest, apoptosis, or cellular senescence. The activation of p53, therefore, is a good indicator of DNA damage and other cellular stresses. […] The activation of the reporter gene under culture conditions can be detected by fluorescence intensity.
# (§7) Tox21 Assay Protocol Summary:
# The p53RE-bla cells were dispensed at 4,000cells/3ul/well in 1536-well black-clear bottom plates. After the assay plates were incubated at 37 C, 5% CO2 incubator for 5 hours, 23 nL of compounds dissolved in DMSO, positive controls or DMSO only was transferred to the assay plate. Following compound addition, 3 uL of human liver microsomes (XenoTech, Kansas City, KS) at final concentration of 0.5 mg/mL and 1uL of Beta-Nicotinamide adenine dinucleotide 2-phosphate (NADPH) at final concentration of 0.5 mg/mL were transferred to the assay plate. The plates were incubated at 37 C for 16 hours. 1 uL of LiveBLAzer detection mixture was added to each well and the plates were incubated at room temperature in the dark for 2 h.
# Potency is read from the fitted curve at half-maximal effect.
Compound,Potency,activation
CCCCOP(OCCCC)OCCCC,inconclusive: 45.8 µM,–
CCCCCCCCCCCCCC[P+](CCCCCC)(CCCCCC)CCCCCC,inconclusive: 51.2 µM,–
O=C1C2CC=CCC2C(=O)N1SC(Cl)(Cl)C(Cl)Cl (stereo not given),–,inconclusive: -20.4%
Cc1cc([N+](=O)[O-])cc([N+](=O)[O-])c1O,inconclusive: 51.2 µM,–

# Assay: p53 small molecule agonists, cell-based qHTS assay with rat liver microsomes (AID 1963578)
# Conditions: HCT-116 p53RE-bla, beta-lactamase ratio, 16 h
# Procedure, shortened: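 Metabolic activation is supplied by rat liver microsomes with NADPH (each 0.5 mg/mL final). p53RE-bla cells incubate with compound 16 h at 37 C; reporter activity is measured by LiveBLAzer fluorescence.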
row,Compound,Potency
1,CC(C)CCCCCCCOP(OCCCCCCCC(C)C)Oc1ccccc1,inconclusive: 51.3 µM
2,CCOP(=S)(CC)Sc1ccccc1 (stereo not given),inconclusive: 9.09 µM
3,Cc1cc([N+](=O)[O-])cc([N+](=O)[O-])c1O,inconclusive: 40.8 µM

# Assay: p53 small molecule agonists, cell-based qHTS assay: qHTS cell viability counter screen (AID 1963581); also: nearly all actives have a fitted effect of over 45% in size
# Conditions: p53RE-bla HCT-116 viability, ATP luminescence, 16 h
# Excerpt: as §1, §2, §3, §4, §5, §6
# p53, a tumor suppressor protein, is activated following cellular insult, including DNA damage and other cellular stresses. The activation of p53 regulates cell fate by inducing DNA repair, cell cycle arrest, apoptosis, or cellular senescence. The activation of p53, therefore, is a good indicator of DNA damage and other cellular stresses. The CellSensor p53RE-bla HCT-116 cell line (Invitrogen) contains a stably integrated beta-lactamase reporter gene under control of the p53 response elements. The activation of the reporter gene under culture conditions can be detected by fluorescence intensity. This cell line was used to screen the Tox21 compound library in a 1536-well plate format and to identify agonists that activate the p53 signaling pathway. The cytotoxicity of the Tox21 compound library against the p53 RE-bla HCT-116 cell line was tested in parallel by measuring the intra cellular ATP content in the same wells.
# as §7
# The p53RE-bla cells were dispensed at 4,000 cells/5 ul/well in 1536-well black wall/clear bottom plates using a Multidrop dispenser. After the assay plates were incubated at a 37 C/5% CO2 incubator for 5 hours, 23 nL of compounds dissolved in DMSO, positive controls or DMSO only was transferred to the assay plate by a pin tool. […] After 1 uL of LiveBLAzerTM B/G FRET substrate was added using a Flying Reagent Dispenser, the plates were incubated at room temperature for 2 hours, and fluorescence intensity was measured by an Envision plate reader. For cell viability readout that measures cytotoxicity, 4 ul/well of CellTiter-Glo reagent was added into the assay plates using a Flying Reagent Dispenser. After 30 min incubation at room temperature, the luminescence intensity in the plates was measured using a ViewLux plate reader.
row,Compound,Potency
1,O=[As]c1ccccc1 (stereo not given),inconclusive: 2.57 µM
2,CCNC(C)Cc1ccc2c(c1)OCO2 (stereo not given),inconclusive: 6.18 µM
3,COC(=O)Cl,inconclusive: 0.565 µM
